Curated experimental data: water solubility values

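These are experimental values that the OPERA curators gathered from public databases to train and test their QSAR models. The files give a single number for a compound and property, which may rest on several reports. Method, purity and exact conditions of the single measurements are not given. The measured form (salt, isomer or mixture) is not always the one drawn. Some upstream entries may be estimates or bounds without being marked so.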

Solubility in water is on a log10 molar scale (set defined at 25 °C).

| structure (SMILES) | water solubility (log10 mol/L) |
|---|---|
| Clc1ccc2c(Cl)ccnc2c1 | -3.729 |
| CCCCCCCCC=CCCCCCCCCO[PH](=O)OCCCCCCCCC=CCCCCCCCC | -8.412 |
| CC(C)C(C)(C)[C@@H]1CCC(=O)[C@H](C)C1 (relative stereo) | -4.252 |
| CCCCCCn1ncc(N)c1N.CCCCCCn1ncc(N)c1N.O=S(=O)(O)O | -3.149 |
| CC(C)(c1cc(Br)c(O)c(Br)c1)c1cc(Br)c(O)c(Br)c1 | -5.635 |
| CC1=C(C(=O)Nc2ccccc2)CCCO1 | -2.56 |
| Cc1c(N=Nc2cccc(OS(=O)(=O)c3ccccc3)c2)c(O)n(C)c(=O)c1C#N | -8.783 |
| O=P(c1ccccc1)(c1ccccc1)c1ccccc1 | -2.877 |
| COC1=CC(=CNNC(N)=O)C=CC1=O | -3.542 |
| CC(CC=O)c1ccccc1 (stereo not given) | -1.87 |
| CC1C(C)(C)C2=C(C(=O)CCC2)C1(C)C (stereo not given) | -3.444 |
| CCN(CC)C(=O)c1cccc(C)c1 | -2.32 |
| COc1ccc(C(Cl)=C(c2ccc(OC)cc2)c2ccc(OC)cc2)cc1 | -6.282 |
| CC(C)CCC(C)(O)C#CC(C)(O)CCC(C)C (stereo not given) | -3.438 |
| Cc1cc(-c2ccc(/N=N/c3cc(S(=O)(=O)[O-])c4ccccc4c3N)c(C)c2)ccc1/N=N/c1cc(S(=O)(=O)[O-])c2ccccc2c1N.[Na+].[Na+] | -1.559 |
| O=C(Cn1ccnc1[N+](=O)[O-])NCc1ccccc1 | -2.81 |
| COc1ccc(N2CCN(c3ccc(-n4cn[nH]c4=O)cc3)CC2)cc1 | -6.489 |
| Oc1ccc(N=Nc2ccc(N=Nc3ccccc3)cc2)cc1 | -9.699 |
| Cc1cc(N(CCO)CCO)ccc1N=Nc1ccc([N+](=O)[O-])cc1 | -5.66 |
| CO[C@@]1(NC(=O)Cc2cccs2)C(=O)N2C(C(=O)O)=C(COC(N)=O)CS[C@@H]21 | -3.341 |
| Clc1ccccc1-c1nc(-c2ccccc2)c(-c2ccccc2)n1C1(c2ccccc2Cl)N=C(c2ccccc2)C(c2ccccc2)=N1 | -7.12 |
| Nc1nc(/C(=N/OC(c2ccccc2)(c2ccccc2)c2ccccc2)C(=O)N[C@H]2C(=O)N3C(C(=O)OC(c4ccccc4)c4ccccc4)=C(CO)CS[C@@H]23)ns1 | -7.607 |
| O=C(OCC(=O)N1CCC1)c1ccccc1 | -1.61 |
| CCC(C)Nc1ccc(Cc2ccc(NC(C)CC)cc2)cc1 (stereo not given) | -5.337 |
| CCCCCCCCC/C=C/C=O | -4.754 |
| O=c1n(CC(Br)CBr)c(=O)n(CC(Br)CBr)c(=O)n1CC(Br)CBr (stereo not given) | -5.158 |
| O=c1n(CCCS)c(=O)n(CCCS)c(=O)n1CCCS | -3.768 |
| O=C=Nc1ccc(N=C=O)cc1 | -2.647 |
| O=C(OCCOCCOC(=O)c1ccccc1)c1ccccc1 | -3.938 |
| CCOc1ccc2c(c1)C(C)=CC(C)(C)N2 | -3.561 |
| O=c1[nH]c2[nH]c(=S)[nH]c(=O)c2[nH]c1=O | -2.23 |
| CCN(CC)c1ccc(N=Nc2c(C#N)cc([N+](=O)[O-])cc2[N+](=O)[O-])c(NC(C)=O)c1 | -6.328 |
| COC(=O)C1=C(C)NC(C)=C(C(=O)OC(C)C)C1c1cccc2nonc12 (stereo not given) | -3.212 |
| O=[N+]([O-])c1ccc(Br)c(Cl)c1 | -4.09 |
| CCS(=O)(=O)CCBr | -0.439 |
| CC=CC=C1C(C)=CC(=O)CC1(C)C | -2.722 |
| CCOP(=O)([O-])Cc1cc(C(C)(C)C)c(O)c(C(C)(C)C)c1.CCOP(=O)([O-])Cc1cc(C(C)(C)C)c(O)c(C(C)(C)C)c1.[Ca+2] | -2.462 |
| CC(C)=CCC(C)CC(C)CO (stereo not given) | -3.227 |
| CN1CC(C(=O)O)CC1=O (stereo not given) | -0.954 |
| C=CC(C)C(O)c1ccc(Cl)cc1 (stereo not given) | -2.561 |
| C[C@@H]1C[C@H]2[C@@H]3C[C@H](F)C4=CC(=O)C=C[C@]4(C)[C@H]3[C@@H](O)C[C@]2(C)[C@@]1(O)C(=O)CO | -3.432 |
| CC(C)(NCCNC(C)(C)C(=O)O)C(=O)O | -2.065 |
| N=c1cc2n(-c3ccccc3)c3cc(Nc4ccccc4)c4c(S(=O)(=O)[O-])cccc4c3nc-2cc1S(=O)(=O)[O-].[Na+].[Na+] | -3.679 |
| OCC(O)C(O)C(O)C(O)C(O)CO (stereo not given) | -0.517 |
| COC(=O)c1ccc(C(=O)OC)c(N=NC(C(C)=O)C(=O)Nc2ccc3[nH]c(=O)[nH]c3c2)c1 (stereo not given) | -6.314 |
| Cc1ccc(N)cc1O | -1.784 |
| CC(C)(C)C(=O)OCOC(=O)[C@@H]1N2C(=O)[C@@H](N=CN3CCCCCC3)[C@H]2SC1(C)C | -3.922 |
| O=C(Nc1ccccc1)c1cc(O)c(O)c(O)c1 | -2.089 |
| CCCCCCCC/C=C\CCCCCCCC(=O)OCC(COC(=O)CCCCCCC/C=C\CCCCCCCC)(COC(=O)CCCCCCC/C=C\CCCCCCCC)COC(=O)CCCCCCC/C=C\CCCCCCCC | -7.378 |
| CC1(C)c2ccccc2-c2ccc(N(c3ccc4c(c3)C3(c5ccccc5-c5ccccc53)c3ccccc3-4)c3ccccc3-c3ccccc3)cc21 | -8.131 |

5 of these entries, quoted again:

{"smiles": "CC(C)=CCC(C)CC(C)CO", "stereo": "stereo not given", "water solubility (log10 mol/L)": "-3.227"}
{"smiles": "CCCCCCCC/C=C\\CCCCCCCC(=O)OCC(COC(=O)CCCCCCC/C=C\\CCCCCCCC)(COC(=O)CCCCCCC/C=C\\CCCCCCCC)COC(=O)CCCCCCC/C=C\\CCCCCCCC", "water solubility (log10 mol/L)": "-7.378"}
{"smiles": "Clc1ccccc1-c1nc(-c2ccccc2)c(-c2ccccc2)n1C1(c2ccccc2Cl)N=C(c2ccccc2)C(c2ccccc2)=N1", "water solubility (log10 mol/L)": "-7.12"}
{"smiles": "COc1ccc(C(Cl)=C(c2ccc(OC)cc2)c2ccc(OC)cc2)cc1", "water solubility (log10 mol/L)": "-6.282"}
{"smiles": "Oc1ccc(N=Nc2ccc(N=Nc3ccccc3)cc2)cc1", "water solubility (log10 mol/L)": "-9.699"}

From the experimental data distributed with OPERA 2.9.